Assays:
[1] = tested on: rat cerebral synaptosomes; assay: Membrane integrity by LDH release assay; assay type: cell-based; details: 100 mM
Description: Adult male Wistar rats purchased from Toxi-Coop Ltd. (Budapest, Hungary) were used in the experiments. Cerebral synaptosomes were prepared according to Modi and co-workers with the following modifications. Animals were decapitated and the brain was removed rapidly. Isotonic sucrose buffer (0.32 M sucrose, 4 mM HEPES-NaOH, pH 7.4) was used to homogenize the cerebrum with a Potter S Homogenizer (B. Braun, Melsungen, Germany) with 15 strokes at 1000 rpm. The homogenate was centrifuged (1500× g, 10 min, 4 °C) and the pellet was resuspended in sucrose buffer and centrifuged with the same parameters again. The two supernatants were combined and centrifuged (20,000× g, 10 min, 4 °C) to pellet the crude synaptosomes. […] Synaptosomes were stored frozen using cryopreservation buffer and the slow freezing method to preserve their physiological state and integrity. Briefly, synaptosome pellets were resuspended in isotonic sucrose buffer containing 10% DMSO (v/v) and 10% FBS (v/v). […] The membrane integrity of the synaptosomes was measured by the CytoTox-ONE Homogeneous Membrane Integrity Assay (Promega, Madison, WI, USA) with minor modifications. […] The LDH activity was then assessed according to the manufacturer’s instructions and the fluorescence was measured by a Varioskan LUX multimode microplate reader (Thermo Fisher Scientific) at 530/590 nm.

[2] = tested on: rat cerebral synaptosomes; assay: Resazurin reduction viability assay; assay type: cell-based; details: up to 100 mM
Description: Adult male Wistar rats purchased from Toxi-Coop Ltd. (Budapest, Hungary) were used in the experiments. Cerebral synaptosomes were prepared according to Modi and co-workers with the following modifications. Animals were decapitated and the brain was removed rapidly. Isotonic sucrose buffer (0.32 M sucrose, 4 mM HEPES-NaOH, pH 7.4) was used to homogenize the cerebrum with a Potter S Homogenizer (B. Braun, Melsungen, Germany) with 15 strokes at 1000 rpm. The homogenate was centrifuged (1500× g, 10 min, 4 °C) and the pellet was resuspended in sucrose buffer and centrifuged with the same parameters again. The two supernatants were combined and centrifuged (20,000× g, 10 min, 4 °C) to pellet the crude synaptosomes. […] Synaptosomes were stored frozen using cryopreservation buffer and the slow freezing method to preserve their physiological state and integrity. Briefly, synaptosome pellets were resuspended in isotonic sucrose buffer containing 10% DMSO (v/v) and 10% FBS (v/v). […] Viability of the rat cerebral synaptosomes was measured by the Resazurin Cell Viability Kit (Cell Signaling Technology Inc., Danvers, MA, USA) with minor modifications. […] Fluorescence of the supernatant was measured with a Varioskan LUX multimode microplate reader (Thermo Fisher Scientific) at 530/590 nm. Viability of the CD-treated synaptosomes was calculated as the percentage of vehicle-treated control synaptosomes.

(2-hydroxypropyl)-alpha-cyclodextrin [HPACD]
LDH release at highest concentration [1]: only a mild increase in the LDH release
Effect on viability [2]: no effect on the viability
